Laboratory results taken from PubChem BioAssay AID540263 (National Center for Advancing Translational Sciences (NCATS), 2011).
Among all 340,000 compounds or so, about 100 (0.029%) were called active. Another 8% or so got no clear call; they are omitted. Many of the other results were omitted from the sample, so actives are more common in it than they were. Values without a mark were called inactive. The call rests on the fitted dose curve.

Protein sequences, listed by entry. Tags and fused reporters are not part of them.
UniProt Q14974, whole entry, looked up: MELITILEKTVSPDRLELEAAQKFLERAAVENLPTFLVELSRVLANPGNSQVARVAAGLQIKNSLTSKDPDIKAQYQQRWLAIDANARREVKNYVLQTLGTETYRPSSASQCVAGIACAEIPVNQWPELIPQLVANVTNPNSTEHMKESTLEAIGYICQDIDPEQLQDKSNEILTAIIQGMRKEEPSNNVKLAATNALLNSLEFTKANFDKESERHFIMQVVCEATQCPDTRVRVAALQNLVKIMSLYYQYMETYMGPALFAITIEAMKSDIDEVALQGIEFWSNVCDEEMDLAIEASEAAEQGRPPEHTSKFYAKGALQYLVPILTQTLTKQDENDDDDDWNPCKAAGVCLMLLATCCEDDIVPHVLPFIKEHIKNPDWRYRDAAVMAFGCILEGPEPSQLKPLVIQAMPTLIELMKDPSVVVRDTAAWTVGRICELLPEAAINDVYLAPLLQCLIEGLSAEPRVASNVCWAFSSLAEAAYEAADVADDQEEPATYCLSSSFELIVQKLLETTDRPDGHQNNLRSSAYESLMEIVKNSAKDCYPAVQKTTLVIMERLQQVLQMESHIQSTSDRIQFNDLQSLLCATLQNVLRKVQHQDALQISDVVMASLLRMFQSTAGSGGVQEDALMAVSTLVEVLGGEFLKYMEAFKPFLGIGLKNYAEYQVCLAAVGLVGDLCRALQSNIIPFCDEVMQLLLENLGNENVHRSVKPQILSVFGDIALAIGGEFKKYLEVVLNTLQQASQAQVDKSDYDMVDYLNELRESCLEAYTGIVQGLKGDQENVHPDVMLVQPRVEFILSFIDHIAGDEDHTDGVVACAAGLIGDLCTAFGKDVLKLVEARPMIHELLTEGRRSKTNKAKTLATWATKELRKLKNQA

These molecules were tested against Importin subunit beta-1 (Homo sapiens) (UniProt Q14974) (assay: qHTS Assay for Inhibitors of Rango (Ran-regulated importin-beta cargo) - Importin beta complex formation). Conditions: Rango CFP/YFP FRET sensor + importin beta, 45 min; series mostly up to 92.2 µM; inhibition of complex formation: at the top concentration.
Description: NIH Molecular Libraries Probe Production Centers Network [MLPCN] NIH Chemical Genomics Center [NCGC] MLPCN Grant: R03 MH090808-01A1 Assay Submitter (PI): Petr Kalab NCGC Assay Overview: The small GTPase Ran regulates transport of macromolecules between the nucleus and the cytoplasm (nuclear transport) and has important functions in mitotic spindle assembly, nuclear envelope (NE) formation and nuclear pore complex (NPC) assembly. RanGTP gradient is thought to promote spindle assembly by providing a spatial clue to microtubule nucleation and Aurora A activation. Because the localized release and binding of importin alpha cargo relays this spatial clue to SAFs, inhibitors of the Rango - importin beta complex can then be used in further understanding their role in cell cycle specifically in mitosis progression. […] Activation of Aurora A has been linked to different types of cancer and a number of Aurora kinase inhibitors are being developed as potential canter therapeutics therefore, identified inhibitors of this complex could be developed into potential anti-mitotic probes for cancer treatment. Purified recombinant proteins Rango and importin beta were provided by the assay submitter. The assay used a fluorescence resonance energy transfer (FRET) Rango biosensor that contains the IBB of human snurportin 1 flanked by yellow fluorescent protein (EYFP) at the amino terminus and cerulean CFP10 at the carboxy terminus. […] Inhibitors will therefore be identified based on the ability to interfere with the FRET signal decrease. DMSO treated and no importin beta (buffer only) wells were used as negative and positive controls respectively. FRET readings were obtained at two time points. FRET reading prior to importin beta addition (pre-read) were used flag potential compound interference; FRET reading after importin beta addition (post-read) were used to identify inhibitors using the FRET ratio parameter.
NCGC Assay Protocol Summary: Two and a half uL/well of Rango-buffer solution (50 nM Rango, 1x PBS, 1mM DTT, 0.02% Tween-20, 0.1% BSA final concentrations) was dispensed into 1536-well assay plates (Greiner, solid black medium-binding plates) with Aurora Discovery BioRAPTR Flying Reagent Dispenser (FRD; Beckton-Dickenson). Compound solution (23 nL) was transferred to the assay plate using Kalypsys pin tool equipped with a 1536-pin tool and incubated at room temperature for 5 min followed by a FRET pre-read using the PerkinElmer Envision plate reader. Two and a half uL/well of Importin beta - buffer solution (0.125 microM importin beta, 1x PBS, 1mM DTT, 0.02% Tween-20, 0.1% BSA final concentrations) were then added and incubated at room temperature giving a final reaction volume of 5uL. After 45min FRET post-read was obtained via the Envision plate reader using the same optics and settings as the pre-read (CFP/YFP optimized dual optical module D450/D505; excitation mirror CFP 430/24 nm; and emission filters CFP 486/10 nm and YFP 530/10 nm).
Further: nearly all actives have a fitted effect of over 15% in size.
Potency means the concentration at half of the fitted maximal effect; tags describe the fitted curve by direction and shape.
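Wherever inhibition of complex formation is given: 0% = DMSO wells and 100% = buffer wells lacking importin beta.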

| SMILES | inhibition of complex formation [%] | Potency |
| --- | --- | --- |
| CCN(CC)S(=O)(=O)c1cccc(NC(=O)c2ccc(S(=O)(=O)N3CCCC3)cc2)c1 | -0.567 |  |
| O=C(NNc1nc(N2CCCC2)nc(N2CCCC2)n1)c1ccccc1 | -2.23 |  |
| O=C(NCC1CCCCC1)NCC1CCCCC1 | 0.434 |  |
| Cc1cc(OCCCC(=O)Nc2cc(S(=O)(=O)N3CCOCC3)ccc2N2CCOCC2)ccc1Cl | -3.56 |  |
| C(#CCN1CCOCC1)CCCN1CCOCC1 | -2.11 |  |
| c1ccc(C(=NNc2nc3ccccc3s2)c2ccccn2)cc1 | 3.48 |  |
| O=C1C(Cl)=C(Oc2ccccc2)C(=O)c2ccccc21 | -0.947 |  |
| O=C(O)C1C2C=CC(O2)C1C(=O)Nc1ccccn1 (configuration not stated) | -0.337 |  |
| O=C1CC[C@@H]2CC3(C[C@@H]4CCN1[C@H]24)Nc1cc([N+](=O)[O-])ccc1NC3=NC1CCCCC1 (some centres not stated) | 7.93 |  |
| COc1cccc2c1C(=O)c1c(O)c3c(c(O)c1C2=O)CC(O)(C(C)=NNC(=O)c1ccc(Cl)c(Cl)c1)CC3OC1CC(N)C(O)C(C)O1 (configuration not stated) |  | 14.6 µM (active) |
| Cc1cccc(NC(=S)N2CCC(C(=O)c3ccc(F)cc3)CC2)c1 | 5.47 |  |
| CCC1([N+](=O)[O-])COC(c2ccc(C)cc2)OC1 (configuration not stated) | 1.54 |  |
| COC(=O)c1ccc(NCc2cc(O)ccc2O)cc1 | -7.51 |  |
| CC(=O)c1ccc(NC(=O)C(C)OC(=O)c2ccc(NS(=O)(=O)c3ccc4[nH]c(=O)[nH]c4c3)cc2)cc1 (configuration not stated) | 0.601 |  |
| CCOc1cc2ccccc2cc1C(=O)Nc1ccccn1 | 0.912 |  |
| Cc1cccc(OCC(=O)NCCCNC(=O)c2ccccn2)c1 | 3.28 |  |
| CCN(CC)CCOc1ccc2c(c1)C(=NNC(=O)c1ccccn1)c1cc(OCCN(CC)CC)ccc1-2 |  | 46.1 µM (active) |
| COC(=O)c1ccc(CNC(=O)Cn2cc(C)c(=O)[nH]c2=O)cc1 | -2.1 |  |
| CC(Nc1ccc([N+](=O)[O-])cc1[N+](=O)[O-])c1ccccc1 (configuration not stated) | -0.617 |  |
| CCCN(C(=O)COC(=O)CNS(=O)(=O)c1ccc(NC(C)=O)cc1)C1CCS(=O)(=O)C1 (configuration not stated) | 0.164 |  |
| CC(=NNC(=S)N1CCCCCC1)c1ccccn1 | -3.27 |  |
| CCOc1ccc(CCNC(=O)COC(=O)C2CCN(S(=O)(=O)c3ccccc3)CC2)cc1OCC | -2.12 |  |
| O=C(N/N=C/c1ccc(Cl)c(Cl)c1)c1ccc2nc[nH]c2c1 | 2.08 |  |
| COc1ccc(/C(C)=N/NC(=O)c2ccc3nc[nH]c3c2)cc1 | -1.28 |  |
| CC(=NNC(=O)c1ccc2nc[nH]c2c1)c1ccc(Br)cc1 |  | 51.7 µM (active) |
| COc1ccc(CCN2CC(C(=O)OCC(=O)NCc3ccccc3Cl)CC2=O)cc1OC (configuration not stated) | 5.68 |  |
| COc1cc2c(cc1OC)C1C(=O)c3cc(OS(C)(=O)=O)c(OC)cc3C1N(C)C2=O (configuration not stated) | -0.982 |  |
